ChEMBL document CHEMBL1135602 (J Med Chem, 2002)

Sequences of proteins named here, by UniProt entry; tags and fusion partners are left off. A change or cut given only in a name is not applied to a line headed by its entry.
UniProt P13922: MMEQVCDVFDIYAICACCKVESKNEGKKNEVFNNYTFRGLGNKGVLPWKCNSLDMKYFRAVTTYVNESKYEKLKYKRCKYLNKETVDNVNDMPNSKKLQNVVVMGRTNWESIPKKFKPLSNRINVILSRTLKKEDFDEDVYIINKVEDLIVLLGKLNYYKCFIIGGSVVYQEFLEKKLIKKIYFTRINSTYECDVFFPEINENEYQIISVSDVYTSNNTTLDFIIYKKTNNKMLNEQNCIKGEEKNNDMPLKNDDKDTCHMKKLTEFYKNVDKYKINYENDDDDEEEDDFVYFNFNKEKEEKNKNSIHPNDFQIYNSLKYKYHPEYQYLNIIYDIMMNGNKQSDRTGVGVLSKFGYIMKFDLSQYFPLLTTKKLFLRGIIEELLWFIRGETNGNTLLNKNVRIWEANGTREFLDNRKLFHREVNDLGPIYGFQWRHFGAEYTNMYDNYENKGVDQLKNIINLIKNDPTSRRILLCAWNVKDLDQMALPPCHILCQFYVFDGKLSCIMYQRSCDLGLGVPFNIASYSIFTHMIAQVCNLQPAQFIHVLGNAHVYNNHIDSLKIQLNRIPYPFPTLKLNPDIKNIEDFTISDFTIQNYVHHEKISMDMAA

Target: Bifunctional dihydrofolate reductase-thymidylate synthase (Plasmodium falciparum K1) (UniProt P13922)
Experiment: Inhibition of the wild-type dihydrofolate reductase (DHFR) relative to Tmp.

For `COc1cc(Cc2cnc(N)nc2N)ccc1OCc1cc(OC)c(OC)c(OC)c1`, which Relative activity is on record?
The Relative activity was 0.06.
